From patent US9656959B2, “Substituted pyridines as sodium channel blockers” (Purdue Pharma L.P., priority 2010, dated 2017)

Protein sequences, listed by entry. Tags and fused reporters are not part of them. Chains listed by the source or under a name are the forms on record and can include a tag or linker.
UniProt Q15858, with tags, fused parts or gaps limits assumed: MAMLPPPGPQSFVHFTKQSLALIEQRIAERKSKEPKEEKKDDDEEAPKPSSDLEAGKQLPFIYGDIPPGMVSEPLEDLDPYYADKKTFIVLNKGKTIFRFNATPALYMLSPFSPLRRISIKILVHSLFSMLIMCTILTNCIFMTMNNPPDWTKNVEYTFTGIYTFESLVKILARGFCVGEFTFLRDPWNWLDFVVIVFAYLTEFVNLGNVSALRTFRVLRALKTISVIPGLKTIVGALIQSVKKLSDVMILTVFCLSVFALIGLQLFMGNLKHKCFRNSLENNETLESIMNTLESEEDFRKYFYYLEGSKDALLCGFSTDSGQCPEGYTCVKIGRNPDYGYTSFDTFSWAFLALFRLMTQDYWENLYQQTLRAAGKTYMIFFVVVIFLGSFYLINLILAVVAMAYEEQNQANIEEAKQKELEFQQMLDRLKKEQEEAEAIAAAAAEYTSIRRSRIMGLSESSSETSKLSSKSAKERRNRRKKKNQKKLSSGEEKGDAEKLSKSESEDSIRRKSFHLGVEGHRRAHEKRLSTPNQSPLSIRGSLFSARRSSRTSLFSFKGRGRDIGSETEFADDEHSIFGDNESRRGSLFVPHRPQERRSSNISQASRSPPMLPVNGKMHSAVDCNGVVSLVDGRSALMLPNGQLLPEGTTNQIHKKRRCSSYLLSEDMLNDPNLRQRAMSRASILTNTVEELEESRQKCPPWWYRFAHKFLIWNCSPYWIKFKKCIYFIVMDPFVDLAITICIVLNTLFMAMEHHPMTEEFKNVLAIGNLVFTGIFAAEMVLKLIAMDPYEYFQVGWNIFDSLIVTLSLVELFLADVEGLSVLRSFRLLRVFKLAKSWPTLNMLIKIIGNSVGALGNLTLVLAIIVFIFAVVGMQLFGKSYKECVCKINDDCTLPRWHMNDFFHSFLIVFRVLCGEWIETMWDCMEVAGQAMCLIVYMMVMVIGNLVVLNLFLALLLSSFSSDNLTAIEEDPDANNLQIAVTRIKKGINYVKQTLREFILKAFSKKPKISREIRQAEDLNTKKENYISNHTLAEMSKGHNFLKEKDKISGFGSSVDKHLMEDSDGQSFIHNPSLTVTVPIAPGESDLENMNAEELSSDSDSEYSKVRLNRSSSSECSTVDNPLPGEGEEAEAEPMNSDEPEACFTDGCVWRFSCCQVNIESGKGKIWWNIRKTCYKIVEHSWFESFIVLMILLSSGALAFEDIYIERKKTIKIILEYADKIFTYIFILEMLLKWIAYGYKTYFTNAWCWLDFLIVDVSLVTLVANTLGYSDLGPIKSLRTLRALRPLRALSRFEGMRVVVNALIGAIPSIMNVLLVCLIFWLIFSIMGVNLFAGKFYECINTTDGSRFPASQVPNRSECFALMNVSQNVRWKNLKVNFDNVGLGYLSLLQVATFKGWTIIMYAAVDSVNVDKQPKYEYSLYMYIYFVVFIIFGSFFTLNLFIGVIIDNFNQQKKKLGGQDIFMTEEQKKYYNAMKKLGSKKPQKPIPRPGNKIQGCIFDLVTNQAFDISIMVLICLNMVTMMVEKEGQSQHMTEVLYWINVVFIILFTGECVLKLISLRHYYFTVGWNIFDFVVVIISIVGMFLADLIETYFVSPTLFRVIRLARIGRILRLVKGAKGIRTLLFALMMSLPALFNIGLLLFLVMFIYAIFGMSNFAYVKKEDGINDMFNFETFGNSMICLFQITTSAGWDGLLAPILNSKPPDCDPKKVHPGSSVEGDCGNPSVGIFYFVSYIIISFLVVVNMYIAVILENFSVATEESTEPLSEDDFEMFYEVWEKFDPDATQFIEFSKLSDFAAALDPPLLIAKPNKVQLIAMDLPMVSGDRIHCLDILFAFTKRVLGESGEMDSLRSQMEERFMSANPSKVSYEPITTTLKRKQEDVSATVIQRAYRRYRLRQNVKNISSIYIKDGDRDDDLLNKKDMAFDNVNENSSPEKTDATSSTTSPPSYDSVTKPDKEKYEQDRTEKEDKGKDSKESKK

Molecular target: human Nav1.7 (Homo sapiens (Human), UniProt Q15858)
Assay: FLIPR or FLIPR TETRA sodium dye assay with KCl and test article pre-incubation
Format: cell-based
Details: read-out: Nav1.7 Activity (μM) FLIPR assay IC50 (μM) ± SEM

N#Cc1ccc(Oc2ccc(-c3cccc(NC(=O)C(O)CO)n3)cc2)cc1C(F)(F)F (stereo not shown) [Compound 75, N-(6-(4-(4-cyano-3-(trifluoromethyl)phenoxy)phenyl)pyridin-2-yl)-2,3-dihydroxypropanamide]
IC50: 0.609 ± 0.027 µM
